Values of other authors, collected in US20160378912A1, “STRUCTURE-BASED MODELING AND TARGET-SELECTIVITY PREDICTION” (EPIGENETX, LLC, priority 2013, published 2016).

Amino acid sequences for entries named in this document (tags omitted). A change or cut given only in a name is not applied to a line headed by its entry.
UniProt Q9UQL6: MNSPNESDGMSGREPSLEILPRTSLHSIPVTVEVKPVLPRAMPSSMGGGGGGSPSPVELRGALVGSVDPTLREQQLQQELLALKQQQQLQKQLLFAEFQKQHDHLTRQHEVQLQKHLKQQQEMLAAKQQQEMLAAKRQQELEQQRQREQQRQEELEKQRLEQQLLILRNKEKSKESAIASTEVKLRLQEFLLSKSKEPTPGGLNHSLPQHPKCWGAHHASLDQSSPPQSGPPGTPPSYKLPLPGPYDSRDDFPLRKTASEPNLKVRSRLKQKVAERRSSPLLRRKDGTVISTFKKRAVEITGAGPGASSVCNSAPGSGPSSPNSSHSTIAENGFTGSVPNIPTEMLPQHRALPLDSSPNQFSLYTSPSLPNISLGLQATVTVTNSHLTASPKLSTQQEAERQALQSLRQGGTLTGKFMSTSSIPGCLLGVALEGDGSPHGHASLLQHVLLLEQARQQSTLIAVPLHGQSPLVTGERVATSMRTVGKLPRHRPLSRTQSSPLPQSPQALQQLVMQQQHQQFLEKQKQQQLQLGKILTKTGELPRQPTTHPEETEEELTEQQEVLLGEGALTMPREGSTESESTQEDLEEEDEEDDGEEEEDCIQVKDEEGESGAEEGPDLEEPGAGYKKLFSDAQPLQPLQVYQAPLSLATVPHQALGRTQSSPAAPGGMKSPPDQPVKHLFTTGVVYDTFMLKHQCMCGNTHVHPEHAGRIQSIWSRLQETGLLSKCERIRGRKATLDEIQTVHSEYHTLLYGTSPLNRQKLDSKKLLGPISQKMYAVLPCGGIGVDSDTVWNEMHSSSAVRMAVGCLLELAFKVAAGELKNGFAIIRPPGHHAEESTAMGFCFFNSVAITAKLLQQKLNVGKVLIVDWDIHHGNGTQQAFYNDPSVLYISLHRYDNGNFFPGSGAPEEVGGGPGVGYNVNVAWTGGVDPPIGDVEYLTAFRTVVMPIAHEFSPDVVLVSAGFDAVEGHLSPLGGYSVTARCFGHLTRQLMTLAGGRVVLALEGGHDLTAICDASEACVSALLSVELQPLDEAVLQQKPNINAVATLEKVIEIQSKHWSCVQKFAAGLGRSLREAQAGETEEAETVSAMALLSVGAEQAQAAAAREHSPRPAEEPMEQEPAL
UniProt Q9UKV0: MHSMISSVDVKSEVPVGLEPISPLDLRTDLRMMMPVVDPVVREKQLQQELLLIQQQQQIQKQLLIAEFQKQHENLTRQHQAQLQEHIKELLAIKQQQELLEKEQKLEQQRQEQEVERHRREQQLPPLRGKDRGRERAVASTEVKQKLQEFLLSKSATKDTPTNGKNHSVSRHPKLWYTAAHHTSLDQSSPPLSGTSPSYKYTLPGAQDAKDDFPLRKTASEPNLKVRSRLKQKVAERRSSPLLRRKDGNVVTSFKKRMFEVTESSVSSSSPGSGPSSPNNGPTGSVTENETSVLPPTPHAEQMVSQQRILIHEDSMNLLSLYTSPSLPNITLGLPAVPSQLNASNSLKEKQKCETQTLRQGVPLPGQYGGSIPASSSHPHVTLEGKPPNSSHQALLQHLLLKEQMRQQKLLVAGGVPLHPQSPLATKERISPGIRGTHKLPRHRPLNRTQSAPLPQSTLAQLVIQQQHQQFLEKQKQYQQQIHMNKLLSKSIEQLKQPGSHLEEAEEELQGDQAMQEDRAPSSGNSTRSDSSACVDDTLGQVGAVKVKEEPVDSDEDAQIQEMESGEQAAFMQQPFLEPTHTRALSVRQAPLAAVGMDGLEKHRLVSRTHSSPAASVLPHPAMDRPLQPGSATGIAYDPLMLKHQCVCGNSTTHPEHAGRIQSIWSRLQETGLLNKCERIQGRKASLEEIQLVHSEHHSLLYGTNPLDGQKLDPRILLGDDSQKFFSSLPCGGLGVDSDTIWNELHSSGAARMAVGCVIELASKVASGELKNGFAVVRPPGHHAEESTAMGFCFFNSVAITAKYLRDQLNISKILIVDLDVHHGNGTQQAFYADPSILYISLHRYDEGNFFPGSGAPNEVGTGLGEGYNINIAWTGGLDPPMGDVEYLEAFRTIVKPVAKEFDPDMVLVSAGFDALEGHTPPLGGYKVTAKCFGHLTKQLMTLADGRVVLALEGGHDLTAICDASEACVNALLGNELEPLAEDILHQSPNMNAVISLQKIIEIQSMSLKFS

Tests used:
HDAH = target: T1, HDAH (Alcaligenes sp., UniProt Q70I53); conditions: CTS; cited from earlier work
T1 sequence (Q70I53 1-369): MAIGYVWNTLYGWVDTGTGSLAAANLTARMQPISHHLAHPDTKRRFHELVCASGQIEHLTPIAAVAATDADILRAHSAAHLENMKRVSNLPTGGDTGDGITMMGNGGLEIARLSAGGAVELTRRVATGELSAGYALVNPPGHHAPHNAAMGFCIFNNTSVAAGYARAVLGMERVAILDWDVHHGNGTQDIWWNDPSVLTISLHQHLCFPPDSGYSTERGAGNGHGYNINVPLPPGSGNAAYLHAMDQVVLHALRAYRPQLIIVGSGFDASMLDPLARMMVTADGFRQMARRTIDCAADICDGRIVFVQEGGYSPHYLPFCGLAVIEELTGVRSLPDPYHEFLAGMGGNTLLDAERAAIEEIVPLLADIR

HDAC5 = HDAC5 (Homo sapiens, UniProt Q9UQL6); conditions: cited from earlier work
HDAC9 = HDAC9 (Homo sapiens, UniProt Q9UKV0); conditions: cited from earlier work
[1] = experimental value of modeled complex
[2] = training set, read-out: HDACs inhibitory activities IC50

SMILES	Experimental pIC50 (HDAH)	IC50 (HDAH) [nM]	pIC50exp (HDAC5; [1])	pIC50 (HDAC5; training set composition)	IC50 (HDAC5; [2]) [nM]	pIC50exp (HDAC9; [1])	pIC50 (HDAC9; training set composition)	IC50 (HDAC9; [2]) [nM]
O=C(CCCCCCC(=O)Nc1ccccc1)NO [SAHA, octanedioic acid hydroxyamidephenylamide]	6.02	950	–	–	–	–	–	–
CC(/C=C/C(=O)NO)=C\[C@H](C)C(=O)c1ccc(N(C)C)cc1 (stereo in doubt) [TSA, 7-(4-(Dimethylamino)phenyl)-N-hydroxy-4,6-dimethyl-7-oxo-2,4-heptadienamide]	–	–	7.796	7.80	16.5	7.419	7.42	38.1
